# Cyclic peptide permeability, from CycPeptMPDB

Values of Kelly et al. 2021, doi:10.1021/jacs.0c06115, as listed in CycPeptMPDB.

PAMPA is the parallel artificial membrane permeability assay, which has no cells and reads passive diffusion. Permeability is given as log10 of P in cm/s; higher (less negative) is more permeable.

CC(=O)N1CCC[C@@H]1C(=O)N(C)[C@H](CC(C)C)C(=O)N[C@@H]1C(=O)N(C)[C@@H](CC(C)C)C(=O)N[C@H](CC(C)C)C(=O)N(C)[C@@H](CC(C)C)C(=O)N(C)[C@@H](C)C(=O)N[C@@H](CC(C)C)C(=O)N2CCC[C@@H]2C(=O)O[C@@H]1C is reported with PAMPA -5.45 (log10 cm/s).
CC(=O)N1CCC[C@@H]1C(=O)N(C)[C@@H](CC(C)C)C(=O)N[C@@H]1C(=O)N[C@@H](CC(C)C)C(=O)N[C@H](CC(C)C)C(=O)N(C)[C@H](CC(C)C)C(=O)N[C@@H](C)C(=O)N[C@@H](CC(C)C)C(=O)N2CCC[C@H]2C(=O)O[C@@H]1C is reported with PAMPA -6.85 (log10 cm/s).
CC(=O)N1CCC[C@H]1C(=O)N[C@@H]1C(=O)N[C@H](CC(C)C)C(=O)N[C@@H](CC(C)C)C(=O)N(C)[C@H](CC(C)C)C(=O)N[C@H](CC(C)C)C(=O)N[C@H](C)C(=O)N[C@@H](CC(C)C)C(=O)N2CCC[C@@H]2C(=O)O[C@@H]1C is reported with PAMPA -5.26 (log10 cm/s).
CC(=O)N1CCC[C@H]1C(=O)N[C@@H]1C(=O)N[C@H](CC(C)C)C(=O)N[C@H](CC(C)C)C(=O)N(C)[C@H](CC(C)C)C(=O)N[C@@H](CC(C)C)C(=O)N(C)[C@H](C)C(=O)N[C@@H](CC(C)C)C(=O)N2CCC[C@@H]2C(=O)O[C@@H]1C is reported with PAMPA -5.71 (log10 cm/s).
CC(=O)N1CCC[C@@H]1C(=O)N(C)[C@@H](CC(C)C)C(=O)N[C@@H]1C(=O)N[C@@H](CC(C)C)C(=O)N(C)[C@@H](CC(C)C)C(=O)N(C)[C@@H](CC(C)C)C(=O)N[C@@H](C)C(=O)N[C@@H](CC(C)C)C(=O)N2CCC[C@H]2C(=O)O[C@@H]1C is reported with PAMPA -6.70 (log10 cm/s).
CC(=O)N1CCC[C@@H]1C(=O)N(C)[C@H](CC(C)C)C(=O)N[C@@H]1C(=O)N(C)[C@@H](CC(C)C)C(=O)N[C@@H](CC(C)C)C(=O)N[C@H](CC(C)C)C(=O)N[C@H](C)C(=O)N[C@H](CC(C)C)C(=O)N2CCC[C@H]2C(=O)O[C@@H]1C is reported with PAMPA -6.69 (log10 cm/s).
CC(=O)N1CCC[C@@H]1C(=O)N(C)[C@@H](CC(C)C)C(=O)N[C@@H]1C(=O)N[C@H](CC(C)C)C(=O)N(C)[C@@H](CC(C)C)C(=O)N[C@@H](CC(C)C)C(=O)N(C)[C@H](C)C(=O)N[C@H](CC(C)C)C(=O)N2CCC[C@H]2C(=O)O[C@@H]1C is reported with PAMPA -5.58 (log10 cm/s).
CC(=O)N1CCC[C@@H]1C(=O)N(C)[C@@H](CC(C)C)C(=O)N[C@@H]1C(=O)N[C@@H](CC(C)C)C(=O)N[C@H](CC(C)C)C(=O)N(C)[C@H](CC(C)C)C(=O)N(C)[C@@H](C)C(=O)N[C@H](CC(C)C)C(=O)N2CCC[C@H]2C(=O)O[C@@H]1C is reported with PAMPA -5.89 (log10 cm/s).
CC(=O)N1CCC[C@@H]1C(=O)N(C)[C@@H](CC(C)C)C(=O)N[C@@H]1C(=O)N(C)[C@H](CC(C)C)C(=O)N[C@H](CC(C)C)C(=O)N[C@H](CC(C)C)C(=O)N[C@H](C)C(=O)N[C@H](CC(C)C)C(=O)N2CCC[C@@H]2C(=O)O[C@@H]1C is reported with PAMPA -6.72 (log10 cm/s).
CC(=O)N1CCC[C@H]1C(=O)N[C@@H]1C(=O)N[C@H](CC(C)C)C(=O)N[C@H](CC(C)C)C(=O)N(C)[C@H](CC(C)C)C(=O)N(C)[C@@H](CC(C)C)C(=O)N(C)[C@@H](C)C(=O)N[C@@H](CC(C)C)C(=O)N2CCC[C@@H]2C(=O)O[C@@H]1C is reported with PAMPA -5.74 (log10 cm/s).
CC(=O)N1CCC[C@H]1C(=O)N(C)[C@@H](CC(C)C)C(=O)N[C@@H]1C(=O)N(C)[C@@H](CC(C)C)C(=O)N(C)[C@H](CC(C)C)C(=O)N[C@H](CC(C)C)C(=O)N(C)[C@@H](C)C(=O)N[C@H](CC(C)C)C(=O)N2CCC[C@@H]2C(=O)O[C@@H]1C is reported with PAMPA -6.64 (log10 cm/s).
CC(=O)N1CCC[C@H]1C(=O)N(C)[C@H](CC(C)C)C(=O)N[C@@H]1C(=O)N(C)[C@H](CC(C)C)C(=O)N(C)[C@@H](CC(C)C)C(=O)N(C)[C@@H](CC(C)C)C(=O)N[C@@H](C)C(=O)N[C@H](CC(C)C)C(=O)N2CCC[C@H]2C(=O)O[C@@H]1C is reported with PAMPA -5.22 (log10 cm/s).
CC(=O)N1CCC[C@H]1C(=O)N(C)[C@@H](CC(C)C)C(=O)N[C@@H]1C(=O)N[C@@H](CC(C)C)C(=O)N[C@H](CC(C)C)C(=O)N[C@H](CC(C)C)C(=O)N[C@H](C)C(=O)N[C@H](CC(C)C)C(=O)N2CCC[C@@H]2C(=O)O[C@@H]1C is reported with PAMPA -7.20 (log10 cm/s).
CC(=O)N1CCC[C@@H]1C(=O)N(C)[C@@H](CC(C)C)C(=O)N[C@@H]1C(=O)N(C)[C@H](CC(C)C)C(=O)N(C)[C@H](CC(C)C)C(=O)N(C)[C@@H](CC(C)C)C(=O)N(C)[C@H](C)C(=O)N[C@H](CC(C)C)C(=O)N2CCC[C@H]2C(=O)O[C@@H]1C is reported with PAMPA -5.20 (log10 cm/s).
CC(=O)N1CCC[C@H]1C(=O)N[C@@H]1C(=O)N[C@H](CC(C)C)C(=O)N[C@@H](CC(C)C)C(=O)N[C@H](CC(C)C)C(=O)N[C@H](CC(C)C)C(=O)N(C)[C@@H](C)C(=O)N[C@@H](CC(C)C)C(=O)N2CCC[C@@H]2C(=O)O[C@@H]1C is reported with PAMPA -5.18 (log10 cm/s).
CC(=O)N1CCC[C@H]1C(=O)N(C)[C@H](CC(C)C)C(=O)N[C@@H]1C(=O)N[C@@H](CC(C)C)C(=O)N[C@H](CC(C)C)C(=O)N[C@H](CC(C)C)C(=O)N[C@H](C)C(=O)N[C@@H](CC(C)C)C(=O)N2CCC[C@H]2C(=O)O[C@@H]1C is reported with PAMPA -6.68 (log10 cm/s).
CC(=O)N1CCC[C@@H]1C(=O)N(C)[C@@H](CC(C)C)C(=O)N[C@@H]1C(=O)N(C)[C@@H](CC(C)C)C(=O)N[C@H](CC(C)C)C(=O)N[C@H](CC(C)C)C(=O)N(C)[C@H](C)C(=O)N[C@@H](CC(C)C)C(=O)N2CCC[C@@H]2C(=O)O[C@@H]1C is reported with PAMPA -5.39 (log10 cm/s).
CC(=O)N1CCC[C@@H]1C(=O)N(C)[C@@H](CC(C)C)C(=O)N[C@@H]1C(=O)N[C@H](CC(C)C)C(=O)N(C)[C@@H](CC(C)C)C(=O)N(C)[C@H](CC(C)C)C(=O)N(C)[C@H](C)C(=O)N[C@H](CC(C)C)C(=O)N2CCC[C@H]2C(=O)O[C@@H]1C is reported with PAMPA -5.41 (log10 cm/s).
CC(=O)N1CCC[C@@H]1C(=O)N(C)[C@@H](CC(C)C)C(=O)N[C@@H]1C(=O)N(C)[C@H](CC(C)C)C(=O)N[C@H](CC(C)C)C(=O)N(C)[C@@H](CC(C)C)C(=O)N(C)[C@H](C)C(=O)N[C@H](CC(C)C)C(=O)N2CCC[C@@H]2C(=O)O[C@@H]1C is reported with PAMPA -5.39 (log10 cm/s).
CC(=O)N1CCC[C@H]1C(=O)N(C)[C@@H](CC(C)C)C(=O)N[C@@H]1C(=O)N[C@H](CC(C)C)C(=O)N(C)[C@@H](CC(C)C)C(=O)N(C)[C@@H](CC(C)C)C(=O)N(C)[C@H](C)C(=O)N[C@H](CC(C)C)C(=O)N2CCC[C@H]2C(=O)O[C@@H]1C is reported with PAMPA -5.48 (log10 cm/s).
CC(=O)N1CCC[C@@H]1C(=O)N(C)[C@H](CC(C)C)C(=O)N[C@@H]1C(=O)N[C@H](CC(C)C)C(=O)N(C)[C@@H](CC(C)C)C(=O)N(C)[C@H](CC(C)C)C(=O)N[C@@H](C)C(=O)N[C@H](CC(C)C)C(=O)N2CCC[C@H]2C(=O)O[C@@H]1C is reported with PAMPA -5.52 (log10 cm/s).
CC(=O)N1CCC[C@H]1C(=O)N(C)[C@H](CC(C)C)C(=O)N[C@@H]1C(=O)N(C)[C@@H](CC(C)C)C(=O)N[C@@H](CC(C)C)C(=O)N(C)[C@@H](CC(C)C)C(=O)N(C)[C@@H](C)C(=O)N[C@@H](CC(C)C)C(=O)N2CCC[C@@H]2C(=O)O[C@@H]1C is reported with PAMPA -5.30 (log10 cm/s).
CC(=O)N1CCC[C@@H]1C(=O)N(C)[C@@H](CC(C)C)C(=O)N[C@@H]1C(=O)N[C@H](CC(C)C)C(=O)N(C)[C@@H](CC(C)C)C(=O)N(C)[C@@H](CC(C)C)C(=O)N(C)[C@@H](C)C(=O)N[C@@H](CC(C)C)C(=O)N2CCC[C@@H]2C(=O)O[C@@H]1C is reported with PAMPA -5.85 (log10 cm/s).
CC(=O)N1CCC[C@@H]1C(=O)N(C)[C@@H](CC(C)C)C(=O)N[C@@H]1C(=O)N[C@@H](CC(C)C)C(=O)N[C@@H](CC(C)C)C(=O)N(C)[C@H](CC(C)C)C(=O)N(C)[C@@H](C)C(=O)N[C@@H](CC(C)C)C(=O)N2CCC[C@H]2C(=O)O[C@@H]1C is reported with PAMPA -6.11 (log10 cm/s).

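Conditions beyond the assay type are not listed; see the original paper. Other peptides of the study may be missing here. Entries at the database's floor value (log10 P of -10) are not listed.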